By EC50 is commonly meant the concentration that produces a half-maximal response. A lower EC50 goes with greater potency.

One test deals with EMCV. Nature of the test: EMCV antiviral assay (MTT dye uptake) in HepG2 cells. To be noted: cytokine 24 hours prior to EMCV, OD570 dye-uptake. It counts as cell-based, encephalomyocarditis virus. (Formazan colour is commonly taken as a measure of viable cells.)
Test [1] relates to human marrow mononuclear cells. The test can be described thus: Bone marrow expansion assay (Alamar Blue). It is filed as cell-based. The conditions noted are these: all conditions tested. For orientation: The colour change of resazurin is a common sign of viable cells or microbes.

In the case of IFN-β: interferon beta (PBL Biomedical), in the test with EMCV, the EC50 was 0.46 ng/mL.

In turn, HuIFN-a2a: human interferon alpha-2a displayed a concentration for a half-maximal effect (EC50) in the test on EMCV of 0.57 ng/mL. Moreover, the bone marrow expansion result in test [1] is recorded as “significant inhibition”.

The values above are taken from patent publication US8816053B2 (ZymoGenetics, Inc., priority 2004, dated 2014).
